Earlier results as cited in US20180161400A1, “ANTIDIABETIC ORAL INSULIN BIGUANIDE COMBINATION” (Emisphere Technologies, Inc., priority 2004, published 2018).

Tested on: people with Type 2 diabetes
Settings: UKPDS intensive therapy; cited from earlier work

insulin
average weight gain: 4 kg
